# Laboratory results reported in patent US12622906B2, “Treatment and prognosis of pancreatic cancer” (Cambridge Enterprise Limited, priority 2019, dated 2026).
# Tested on: PDAC mesenchymal cells
# Set-up: species or system C57BL/6J mice
# Details: mouse, in vivo
structure (smiles),measurement,value
"C[C@@H]1CN(Cc2ccc(F)cc2)CCN1C(=O)COc1ccc(Cl)cc1NC(N)=O [BX-471, (2R)-1-[[2-[(Aminocarbonyl)amino]-4-chlorophenoxy]acetyl]-4-[(4-fluorophenyl)methyl]-2-methylpiperazine]",primary tumour growth,significant inhibition to the growth of pancreatic cancer cells; also recorded: Reduced primary tumour growth

# Entries after “also recorded” stand apart in the source; their conditions may differ.
